Here are results for one molecule from paper PMC8704707 (Pharmaceuticals, 2021).

The experiment deals with AChE from electric eel (EeAChE) (Electrophorus electricus, UniProt O42275). Description: Inhibition of acetylcholinesterase, Ellman's method. Format: biochemical. Particulars: ratio of IC50 for AChE/IC50 for BuChE; values above 1 indicate stronger inhibition of BuChE. On the technique in general: In Ellman's method for cholinesterases, released thiocholine reacts with DTNB.

For the molecule `[H]/N=C(\NN=Cc1ccc([N+](=O)[O-])o1)N[N+](=O)[O-]`, the Selectivity AChE/BuChE is less than 0.05.
